Experimental data reported in publication PMC6350255 (Journal of medicinal chemistry, 2018).

Tested on: human β-cells (dispersed human pancreatic islets)
Format: cell-based

COc1ccc2c(c1)[nH]c1c(CO)nccc12 [Compound 2–2, 1-Hydroxymethyl-7-methoxy-9H-β-carboline]
human β-cell proliferation, Ki-67 immunolabeling: comparable to that of harmine
